# The whole screen tested about 340,000 compounds, of which about 100 (0.029%) were called active. Roughly 8% stayed inconclusive and do not appear here. Only a selection was taken, and actives are over-represented in it overall. Unmarked numbers belong to inactive results. Calls come from the whole dose curve.
# By UniProt entry, the sequences of proteins in these tests, tags left out.
# UniProt Q14974, whole entry, looked up: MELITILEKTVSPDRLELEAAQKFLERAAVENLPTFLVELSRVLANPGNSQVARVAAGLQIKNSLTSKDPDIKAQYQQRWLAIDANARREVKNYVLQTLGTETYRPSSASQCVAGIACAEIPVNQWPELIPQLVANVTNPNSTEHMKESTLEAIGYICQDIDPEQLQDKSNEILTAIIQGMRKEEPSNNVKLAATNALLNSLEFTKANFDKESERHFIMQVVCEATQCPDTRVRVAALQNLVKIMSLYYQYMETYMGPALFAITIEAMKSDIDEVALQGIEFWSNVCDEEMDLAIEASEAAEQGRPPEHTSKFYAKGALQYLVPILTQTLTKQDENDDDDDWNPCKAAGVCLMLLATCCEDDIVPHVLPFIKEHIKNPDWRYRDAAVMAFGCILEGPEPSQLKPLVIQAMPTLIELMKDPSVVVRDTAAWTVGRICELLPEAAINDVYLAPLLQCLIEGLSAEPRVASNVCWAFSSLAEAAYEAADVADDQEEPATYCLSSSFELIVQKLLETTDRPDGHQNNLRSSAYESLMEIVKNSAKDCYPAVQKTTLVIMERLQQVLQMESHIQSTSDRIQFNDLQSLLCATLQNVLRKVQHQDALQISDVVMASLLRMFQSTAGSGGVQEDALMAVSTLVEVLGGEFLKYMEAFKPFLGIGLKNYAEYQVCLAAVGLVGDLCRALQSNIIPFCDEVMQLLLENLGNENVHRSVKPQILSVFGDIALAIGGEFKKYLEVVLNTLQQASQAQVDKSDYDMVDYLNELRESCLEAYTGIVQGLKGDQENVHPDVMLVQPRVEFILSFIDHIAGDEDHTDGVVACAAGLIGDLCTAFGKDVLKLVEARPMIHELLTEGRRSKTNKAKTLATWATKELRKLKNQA
# Biological target: Importin subunit beta-1 (Homo sapiens) (UniProt Q14974)
# Test: qHTS Assay for Inhibitors of Rango (Ran-regulated importin-beta cargo) - Importin beta complex formation; note: nearly all actives have a fitted effect of over 15% in size;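 for inhibition of complex formation: 0% = DMSO wells and 100% = buffer wells lacking importin beta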
# Settings: Rango CFP/YFP FRET sensor + importin beta, 45 min; series mostly up to 92.2 µM; inhibition of complex formation: at the top concentration
# Excerpt: NIH Molecular Libraries Probe Production Centers Network [MLPCN] NIH Chemical Genomics Center [NCGC] MLPCN Grant: R03 MH090808-01A1 Assay Submitter (PI): Petr Kalab NCGC Assay Overview: The small GTPase Ran regulates transport of macromolecules between the nucleus and the cytoplasm (nuclear transport) and has important functions in mitotic spindle assembly, nuclear envelope (NE) formation and nuclear pore complex (NPC) assembly. RanGTP gradient is thought to promote spindle assembly by providing a spatial clue to microtubule nucleation and Aurora A activation. Because the localized release and binding of importin alpha cargo relays this spatial clue to SAFs, inhibitors of the Rango - importin beta complex can then be used in further understanding their role in cell cycle specifically in mitosis progression. […] Activation of Aurora A has been linked to different types of cancer and a number of Aurora kinase inhibitors are being developed as potential canter therapeutics therefore, identified inhibitors of this complex could be developed into potential anti-mitotic probes for cancer treatment. Purified recombinant proteins Rango and importin beta were provided by the assay submitter. The assay used a fluorescence resonance energy transfer (FRET) Rango biosensor that contains the IBB of human snurportin 1 flanked by yellow fluorescent protein (EYFP) at the amino terminus and cerulean CFP10 at the carboxy terminus. […] Inhibitors will therefore be identified based on the ability to interfere with the FRET signal decrease. DMSO treated and no importin beta (buffer only) wells were used as negative and positive controls respectively. FRET readings were obtained at two time points. FRET reading prior to importin beta addition (pre-read) were used flag potential compound interference; FRET reading after importin beta addition (post-read) were used to identify inhibitors using the FRET ratio parameter.
# NCGC Assay Protocol Summary: Two and a half uL/well of Rango-buffer solution (50 nM Rango, 1x PBS, 1mM DTT, 0.02% Tween-20, 0.1% BSA final concentrations) was dispensed into 1536-well assay plates (Greiner, solid black medium-binding plates) with Aurora Discovery BioRAPTR Flying Reagent Dispenser (FRD; Beckton-Dickenson). Compound solution (23 nL) was transferred to the assay plate using Kalypsys pin tool equipped with a 1536-pin tool and incubated at room temperature for 5 min followed by a FRET pre-read using the PerkinElmer Envision plate reader. Two and a half uL/well of Importin beta - buffer solution (0.125 microM importin beta, 1x PBS, 1mM DTT, 0.02% Tween-20, 0.1% BSA final concentrations) were then added and incubated at room temperature giving a final reaction volume of 5uL. After 45min FRET post-read was obtained via the Envision plate reader using the same optics and settings as the pre-read (CFP/YFP optimized dual optical module D450/D505; excitation mirror CFP 430/24 nm; and emission filters CFP 486/10 nm and YFP 530/10 nm).
# Potency is the fitted concentration of half-maximal effect; tags give direction and shape of the fitted curve.
Structure (SMILES),inhibition of complex formation,Potency
CCN(CC)S(=O)(=O)c1cccc(NC(=O)c2ccc(S(=O)(=O)N3CCCC3)cc2)c1,-0.567%,–
O=C(NNc1nc(N2CCCC2)nc(N2CCCC2)n1)c1ccccc1,-2.23%,–
O=C(NCC1CCCCC1)NCC1CCCCC1,0.434%,–
Cc1cc(OCCCC(=O)Nc2cc(S(=O)(=O)N3CCOCC3)ccc2N2CCOCC2)ccc1Cl,-3.56%,–
C(#CCN1CCOCC1)CCCN1CCOCC1,-2.11%,–
c1ccc(C(=NNc2nc3ccccc3s2)c2ccccn2)cc1,3.48%,–
O=C1C(Cl)=C(Oc2ccccc2)C(=O)c2ccccc21,-0.947%,–
O=C(O)C1C2C=CC(O2)C1C(=O)Nc1ccccn1 (centres undefined),-0.337%,–
O=C1CC[C@@H]2CC3(C[C@@H]4CCN1[C@H]24)Nc1cc([N+](=O)[O-])ccc1NC3=NC1CCCCC1 (some centres undefined),7.93%,–
COc1cccc2c1C(=O)c1c(O)c3c(c(O)c1C2=O)CC(O)(C(C)=NNC(=O)c1ccc(Cl)c(Cl)c1)CC3OC1CC(N)C(O)C(C)O1 (centres undefined),–,14.6 µM (active)
Cc1cccc(NC(=S)N2CCC(C(=O)c3ccc(F)cc3)CC2)c1,5.47%,–
CCC1([N+](=O)[O-])COC(c2ccc(C)cc2)OC1 (centres undefined),1.54%,–
COC(=O)c1ccc(NCc2cc(O)ccc2O)cc1,-7.51%,–
CC(=O)c1ccc(NC(=O)C(C)OC(=O)c2ccc(NS(=O)(=O)c3ccc4[nH]c(=O)[nH]c4c3)cc2)cc1 (centres undefined),0.601%,–
CCN(CC)CCOc1ccc2c(c1)C(=NNC(=O)c1ccccn1)c1cc(OCCN(CC)CC)ccc1-2,–,46.1 µM (active)
Cc1cccc(OCC(=O)NCCCNC(=O)c2ccccn2)c1,3.28%,–
CCOc1cc2ccccc2cc1C(=O)Nc1ccccn1,0.912%,–
COC(=O)c1ccc(CNC(=O)Cn2cc(C)c(=O)[nH]c2=O)cc1,-2.1%,–
CC(Nc1ccc([N+](=O)[O-])cc1[N+](=O)[O-])c1ccccc1 (centres undefined),-0.617%,–
CCCN(C(=O)COC(=O)CNS(=O)(=O)c1ccc(NC(C)=O)cc1)C1CCS(=O)(=O)C1 (centres undefined),0.164%,–
CC(=NNC(=S)N1CCCCCC1)c1ccccn1,-3.27%,–
CCOc1ccc(CCNC(=O)COC(=O)C2CCN(S(=O)(=O)c3ccccc3)CC2)cc1OCC,-2.12%,–

Structure (SMILES),inhibition of complex formation,Potency
CC(=NNC(=O)c1ccc2nc[nH]c2c1)c1ccc(Br)cc1,–,51.7 µM (active)
O=C(N/N=C/c1ccc(Cl)c(Cl)c1)c1ccc2nc[nH]c2c1,2.08%,–
COc1ccc(/C(C)=N/NC(=O)c2ccc3nc[nH]c3c2)cc1,-1.28%,–
COc1ccc(CCN2CC(C(=O)OCC(=O)NCc3ccccc3Cl)CC2=O)cc1OC (centres undefined),5.68%,–
COc1cc2c(cc1OC)C1C(=O)c3cc(OS(C)(=O)=O)c(OC)cc3C1N(C)C2=O (centres undefined),-0.982%,–
O=C(Cc1ccc(NC(=O)C2CCCN(C(=O)C3CCCCC3)C2)cc1)Nc1cccc(C(=O)N2CCCCC2)c1 (centres undefined),-3.72%,–
CCOC(=O)[C@H]1[C@H]2COc3ccc(Br)cc3[C@@H]2N2C(=O)CN(C)C(=O)[C@@]12C,-0.78%,–
O=C(NCCc1ccccc1)c1cccc(NC(=O)c2ccccc2)c1,0.414%,–
CC(=O)CSc1nc(CCc2ccccc2)c(C#N)c(=O)[nH]1,-0.166%,–
COC1C(CO)OC(n2cnc3c(=S)nc(N)[nH]c32)C1O (centres undefined),5.99%,–
COc1ccc(Cn2cc(CN3CCS(=O)(=O)N(Cc4ccc(-c5cccc(Cl)c5)cc4)C(C)C3=O)nn2)cc1 (centres undefined),0.684%,–
CCN1C[C@@H]2[C@@H]3C(=O)N(Cc4ccccc4)C(=O)[C@@H]3[C@](C)(C1=O)N2C(=O)c1ccc(C(C)(C)C)cc1,-0.393%,–
Cc1cc2c(cc1C)NC1(C[C@H]3CCC(=O)N4CC[C@@H](C1)[C@@H]34)C(=NC(C)(C)CC(C)(C)C)N2 (some centres undefined),-5.93%,–
O=C(OCCOc1ccccc1F)c1cc(S(=O)(=O)N2CCOCC2)ccc1F,-0.785%,–
O=C1/C(=C\c2ccc([N+](=O)[O-])cc2)CS(=O)(=O)C/C1=C/c1ccc([N+](=O)[O-])cc1,-1.37%,–
FC(F)(F)c1ccc(-c2cccc3c2C2CC3CCN2Cc2ccccc2)cc1 (centres undefined),-0.476%,–
CCOc1ccc(S(=O)(=O)N2CCN(C(=O)c3oc4ccccc4c3C)CC2)cc1,0.762%,–
Cc1nc(N)nc(Cl)c1CCC1OCCO1,-0.198%,–
Cn1c(=O)[nH]c2c(c(C(=O)O)nn2C)c1=O,2.54%,–
O=C(CC(=O)c1cccnc1)c1ccccc1,-1.07%,–
O=C(O)C(c1cccs1)C1(O)CCCCC1 (centres undefined),2.58%,–
CC(=NNC(=O)c1ccncc1)c1ccc(Cl)c(Cl)c1,0.952%,–

Structure (SMILES),inhibition of complex formation,Potency
Cc1ccc2c(O)c(Cc3ccccc3)c(=O)[nH]c2n1,-0.948%,–
COc1ccc(OC)c(Cc2cnc3nc(N)nc(N)c3c2C)c1,1.02%,–
O=C1NC(=O)C(CCc2ccccc2)(c2ccccc2)N1 (centres undefined),-0.134%,–
O=S(=O)(Nc1ccc2ccccc2c1)N1CCCCC1,1.21%,–
NC(=O)C1(Nc2ccc([N+](=O)[O-])cc2)CCCC1,1.99%,–
COc1cccc(-n2nc(C(=O)N3CCN(Cc4ccccc4)CC3)c3ccccc3c2=O)c1,0.18%,–
CCOC(=O)N1CCN(Cc2nc3cc(NC(C)=O)ccc3n2C)CC1,1.49%,–
CCOC(=O)N1CCN(Cc2nc3ccc([N+](=O)[O-])cc3c(=O)n2-c2cccc(OC)c2)CC1,–,65.1 µM (active)
C=CCn1c(=O)n(C)c2c(=O)n(C)c(=O)n(C)c21,0.323%,–
CCc1nnc(NC(=O)c2cc(S(=O)(=O)N3CCN(CC)CC3)ccc2Cl)s1,-0.0496%,–
O=[N+]([O-])c1ccc(N2CCOCC2)cc1,-0.532%,–
COC1=CC(=O)OC(c2ccc(OC)cc2)C1 (centres undefined),0.94%,–
C[C@@H]1NS(=O)(=O)c2cc(Cl)ccc2O[C@@H]1c1ccccc1,0.256%,–
Cc1onc(-c2c(F)cccc2Cl)c1C(=O)Nc1cccc(S(=O)(=O)N2CCCCC2)c1,-3.64%,–
COc1cc(O)c2c(=O)c3c(O)c(O)ccc3oc2c1OC,2.1%,–
COc1ccccc1C(=O)c1ccccc1C(=O)c1ccccc1,0.498%,–
CCc1c(Nc2ccccc2Cl)nc(N)[nH]c1=O,-2.61%,–
O=C1NCC(c2ccccc2)(c2ccccc2)C(=O)N1,-0.926%,–
CC(=O)OC1CCC2(C)C(=CCC3C4CC(=O)N(O)C(=O)C4(C)CCC32)C1 (centres undefined),8.37%,–
O=c1[nH]c(=S)[nH]c(O)c1/C=C1\C=Nc2ccccc21,-4.21%,–

# — PubChem BioAssay AID540263 (National Center for Advancing Translational Sciences (NCATS), 2011)
